Reference: US9018383B2, “Acylamino-substituted cyclic carboxylic acid derivatives and their use as pharmaceuticals” (Sanofi, priority 2009, dated 2015)

The chains behind the UniProt entries cited, without tags or fusion partners.
UniProt Q92633, whole entry: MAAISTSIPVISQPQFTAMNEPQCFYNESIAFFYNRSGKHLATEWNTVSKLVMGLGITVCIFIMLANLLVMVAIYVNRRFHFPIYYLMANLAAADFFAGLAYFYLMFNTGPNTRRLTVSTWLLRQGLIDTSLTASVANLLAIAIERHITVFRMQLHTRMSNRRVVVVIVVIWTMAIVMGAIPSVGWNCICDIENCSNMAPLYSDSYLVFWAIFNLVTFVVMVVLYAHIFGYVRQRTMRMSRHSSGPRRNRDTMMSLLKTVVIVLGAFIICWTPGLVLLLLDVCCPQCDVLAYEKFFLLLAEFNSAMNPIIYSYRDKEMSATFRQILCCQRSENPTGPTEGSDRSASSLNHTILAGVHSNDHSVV

Target: human Edg-2 receptor (Homo sapiens, UniProt Q92633)
Assay: Determination of Edg-2 receptor inhibition by FLIPR measurements (LPA-mediated calcium liberation)
Conditions: read-out: Inhibitory concentrations IC50 for inhibition of the Edg-2 receptor; CHO cells overexpressing human Edg-2 receptor, LPA 100 nM, fluo-4 calcium fluorescence
Experimental: A) Determination of Edg-2 Receptor Inhibition by Fluorescence Imaging Plate Reader (FLIPR) Measurements
The inhibition of the Edg-2 receptor (LPA1 receptor) by the compounds of the invention was quantified by the inhibitory effect on the LPA-mediated calcium liberation in a cell-based calcium fluorescence assay by use of Chinese hamster ovarian (CHO) cells in which the human Edg-2 receptor was stably overexpressed (Flp-In system, Invitrogen). […] Changes in intracellular calcium were determined by fluorescence measurement with the calcium-sensitive dye fluo-4 (Invitrogen) in a fluorescence imaging plate reader (FLIPR, […]).
CHO cells stably overexpressing the human Edg-2 receptor were seeded (40.000 per well) in black clear-bottomed poly-D-lysine-coated 96 well plates (Becton Dickinson, Biocoat cellware) approximately 18-24 h prior to the experiments. Cells were grown in an incubator at 37° C., 5% carbon dioxide and 95% humidity in cell culture media based on F-12 glutamax media (Gibco, #31765) supplemented with 1% (vol/vol) penicilline/streptomycine (PAN, #P06-07100), 10% (vol/vol) fetal calf serum (FCS, PAA, #A15-151) and hygromycin B (Invitrogen, #10687-010) 300 mg/l (final concentrations).
Prior to the FLIPR experiment, cells were loaded with fluo-4 acetoxymethyl ester (fluo-4 AM, Invitrogen, #F14202) for 60 min in an incubator at 37° C., 5% carbon dioxide and 95% humidity in dye-loading buffer consisting of Hanks' Balanced Salt Solution (HBSS, Invitrogen, #14065049) supplemented with fluo-4 AM at 2 μM (all data given for final concentration), Pluronic® F-127 0.05% (vol/vol) (Invitrogen, #P-3000 MP), HEPES 20 mM (Gibco, #15630), probenecid 2.5 mM (Sigma, #P-8761) and bovine serum albumin 0.05% (BSA, Sigma, #A-6003), adjusted to pH 7.5 with sodium hydroxide. During cell loading, fluo-4 AM is cleaved by intracellular esterase resulting in trapping of the dye fluo-4 within the cells. Loading was terminated by washing of the cells in a cell washer (Tecan Power washer) three times with the buffer specified afore but without fluo-4 AM and BSA. This latter buffer was also used as the buffer in the subsequent cell fluorescence measurements.
The dye-loaded and washed cells were pre-incubated for approximately 5 min with various concentrations of the test compound added as a solution in DMSO (0.3% vol/vol maximum final concentration of DMSO), or with DMSO in the respective concentration only (positive control). Subsequent addition of LPA (18:1, 1-oleoyl-sn-glycerol 3-phosphate; 100 nM final concentration) leads to liberation of intracellular calcium from internal stores resulting in a large transient increase of the fluo-4 fluorescence signal which was monitored over approximately 3 min. The percent inhibition caused by the test compound was determined from the maximum fluorescence response after LPA addition to cells pre-incubated with the compound as compared to the maximum fluorescence response after LPA addition to cells pre-incubated with DMSO only. All fluorescence values were corrected for the baseline fluorescence values obtained with cells which were pre-incubated with DMSO only and were not treated with LPA (baseline control). All measurements were performed in triplicate. From the percent inhibitions the inhibitory concentration IC50 was determined.

Structure (SMILES) | IC50 [nM]
COc1ccc(C(=O)NC2(C(=O)O)CCC(C)CC2)cc1OCCc1cccc(C)c1 (stereo not drawn) | < 100
CCC1CCC(NC(=O)c2ccc(OCCO)c(-c3ccc(F)c(F)c3)c2)(C(=O)O)CC1 (stereo not drawn) | < 100
CCC1CCC(NC(=O)c2ccc(OCCO)c(-c3ccc(OC)c(Cl)c3)c2)(C(=O)O)CC1 (stereo not drawn) | < 100
COc1ccc(C(=O)NC2(C(=O)O)CCCCCC2)cc1-c1cccc(Cl)c1 | 100 to 1000
CC[C@H]1CC[C@](NC(=O)c2cc(F)c(OCCO)c(-c3cccc(C(F)(F)F)c3)c2)(C(=O)O)CC1 | < 100
CCC1CCC(NC(=O)c2ccc(OCCO)c(-c3cccc(C(F)(F)F)c3)c2)(C(=O)O)CC1 (stereo not drawn) | < 100
CC[C@H]1CC[C@@](NC(=O)c2cnc(OC)c(-c3ccc(OC)c(Cl)c3)c2)(C(=O)O)CC1 | < 100
CCC1CCC(NC(=O)c2ccc(OCCO)c(-c3cc(F)cc(F)c3)c2)(C(=O)O)CC1 (stereo not drawn) | < 100
CCC1CCC(NC(=O)c2ccc(OCCO)c(-c3cccc(OC(F)(F)F)c3)c2)(C(=O)O)CC1 (stereo not drawn) | < 100
